One may read the Ki as a dissociation constant, usually derived from enzyme kinetics or from competition with a known ligand. Lower therefore signals tighter binding.

Sequences of proteins named here, by UniProt entry; tags and fusion partners are left off. Residues count along the entry.
UniProt P09483, 31-630: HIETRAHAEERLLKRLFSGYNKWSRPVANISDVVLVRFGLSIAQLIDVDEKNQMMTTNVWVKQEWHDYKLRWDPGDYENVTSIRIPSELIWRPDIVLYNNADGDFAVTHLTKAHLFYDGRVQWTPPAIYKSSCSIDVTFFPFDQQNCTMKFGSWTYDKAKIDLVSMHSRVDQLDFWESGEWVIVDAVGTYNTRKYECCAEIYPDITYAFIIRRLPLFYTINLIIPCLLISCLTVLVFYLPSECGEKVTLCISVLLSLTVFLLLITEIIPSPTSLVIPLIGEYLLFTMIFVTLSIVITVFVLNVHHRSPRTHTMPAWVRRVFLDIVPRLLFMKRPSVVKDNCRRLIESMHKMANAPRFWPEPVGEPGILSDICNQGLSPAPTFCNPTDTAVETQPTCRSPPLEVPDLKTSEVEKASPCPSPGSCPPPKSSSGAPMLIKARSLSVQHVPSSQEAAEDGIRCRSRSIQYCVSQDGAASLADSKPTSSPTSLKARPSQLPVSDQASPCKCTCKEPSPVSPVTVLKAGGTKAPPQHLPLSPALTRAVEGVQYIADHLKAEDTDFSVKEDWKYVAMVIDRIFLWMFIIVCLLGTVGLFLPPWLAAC
UniProt P12390, 25-500: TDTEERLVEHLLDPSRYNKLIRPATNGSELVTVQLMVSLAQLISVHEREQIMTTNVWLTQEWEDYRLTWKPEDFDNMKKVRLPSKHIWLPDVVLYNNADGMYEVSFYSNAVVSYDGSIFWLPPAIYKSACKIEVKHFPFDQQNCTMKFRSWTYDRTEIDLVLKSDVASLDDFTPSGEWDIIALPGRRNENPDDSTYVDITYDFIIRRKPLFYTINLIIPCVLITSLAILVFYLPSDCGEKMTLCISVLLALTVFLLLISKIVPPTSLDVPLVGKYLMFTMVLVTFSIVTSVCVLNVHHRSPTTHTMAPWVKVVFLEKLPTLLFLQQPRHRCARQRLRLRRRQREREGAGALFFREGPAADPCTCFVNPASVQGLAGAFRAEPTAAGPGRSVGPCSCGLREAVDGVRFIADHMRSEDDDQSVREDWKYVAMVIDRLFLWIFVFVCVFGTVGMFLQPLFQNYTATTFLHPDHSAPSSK

Consider 1 compound from patent US8030300B2 (dated 2011).

This test deals with α4β2 nAChR subtype (Rattus norvegicus, UniProt P09483+P12390). As to the kind of experiment: biochemical. Conditions: Ki α4β2, Table 5; rat nAChR subtypes.

The structures appear in SMILES notation.

As for `O[C@H]1C[C@H]2N[C@@H]1C[C@@H]2c1ccc(Cl)nc1` (relative stereo) [Ligand 6, 2-exo-(2-Chloro-5-pyridyl)-5-exo-hydroxyl-7-azabicyclo[2.2.1]heptane], the Ki worked out at 29.3 nM.
